In PubChem BioAssay (NCI):
Some of these compounds have results that are not shown, active ones among them.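 Protocol summary: plate cells (96-well), add compound at 5 concentrations, incubate 48 h, interpolate endpoints linearly. Abbreviation: GI50, concentration required for 50% inhibition of growth. TGI marks complete inhibition of growth.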

Experiments:
Assay in all cases: NCI anticancer screen, dose series, 48 h; in the data active = GI50 below about 0.43 µM; inactive = the rest
786-0 renal = tested on: 786-0 renal
A498 renal = tested on: A498 renal
A549 NSCLC = tested on: A549 NSCLC
ACHN renal = tested on: ACHN renal
CAKI-1 renal = tested on: CAKI-1 renal
CCRF-CEM leukemia = tested on: CCRF-CEM leukemia
COLO 205 colon = tested on: COLO 205 colon
DU-145 prostate = tested on: DU-145 prostate
EKVX NSCLC = tested on: EKVX NSCLC
HCC-2998 colon = tested on: HCC-2998 colon
HCT-116 colon = tested on: HCT-116 colon
HCT-15 colon = tested on: HCT-15 colon
HL-60(TB) leukemia = tested on: HL-60(TB) leukemia
HOP-62 NSCLC = tested on: HOP-62 NSCLC
HOP-92 NSCLC = tested on: HOP-92 NSCLC
HS 578T breast = tested on: HS 578T breast
HT29 colon = tested on: HT29 colon
IGROV1 ovarian = tested on: IGROV1 ovarian
K-562 leukemia = tested on: K-562 leukemia
KM12 colon = tested on: KM12 colon
LOX IMVI melanoma = tested on: LOX IMVI melanoma
M14 melanoma = tested on: M14 melanoma
MALME-3M melanoma = tested on: MALME-3M melanoma
MCF7 breast = tested on: MCF7 breast
MDA-MB-231 breast = tested on: MDA-MB-231 breast
MDA-MB-435 = tested on: MDA-MB-435
MDA-N = tested on: MDA-N
MOLT-4 leukemia = tested on: MOLT-4 leukemia
NCI-H226 lung = tested on: NCI-H226 lung
NCI-H23 lung = tested on: NCI-H23 lung
NCI-H322M lung = tested on: NCI-H322M lung
NCI-H460 lung = tested on: NCI-H460 lung
NCI-H522 lung = tested on: NCI-H522 lung
NCI/ADR-RES ovarian = tested on: NCI/ADR-RES ovarian
OVCAR-3 ovarian = tested on: OVCAR-3 ovarian
OVCAR-4 ovarian = tested on: OVCAR-4 ovarian
OVCAR-5 ovarian = tested on: OVCAR-5 ovarian
OVCAR-8 ovarian = tested on: OVCAR-8 ovarian
PC-3 prostate = tested on: PC-3 prostate
RPMI-8226 leukemia = tested on: RPMI-8226 leukemia
RXF 393 renal = tested on: RXF 393 renal
SF-268 CNS = tested on: SF-268 CNS
SF-295 CNS = tested on: SF-295 CNS
SF-539 CNS = tested on: SF-539 CNS
SK-MEL-2 melanoma = tested on: SK-MEL-2 melanoma
SK-MEL-28 melanoma = tested on: SK-MEL-28 melanoma
SK-MEL-5 melanoma = tested on: SK-MEL-5 melanoma
SN12C renal = tested on: SN12C renal
SNB-19 CNS = tested on: SNB-19 CNS
SNB-75 CNS = tested on: SNB-75 CNS
SR leukemia = tested on: SR leukemia
SW-620 colon = tested on: SW-620 colon
T-47D breast = tested on: T-47D breast
TK-10 renal = tested on: TK-10 renal
U251 CNS = tested on: U251 CNS
UACC-257 melanoma = tested on: UACC-257 melanoma
UACC-62 melanoma = tested on: UACC-62 melanoma

CC/C=C\C(O)(C(=O)OC1CN2CCC1CC2)C1CCCC1 (centres undefined)
inactive: GI50 (786-0 renal) > 100 µM | GI50 (A498 renal) > 100 µM | GI50 (A549 NSCLC) > 100 µM | GI50 (ACHN renal) > 100 µM | GI50 (CAKI-1 renal) > 100 µM | GI50 (CCRF-CEM leukemia) > 100 µM | GI50 (COLO 205 colon) > 100 µM | GI50 (DU-145 prostate) > 100 µM | GI50 (EKVX NSCLC) > 100 µM | GI50 (HCC-2998 colon) > 100 µM | GI50 (HCT-116 colon) > 100 µM | GI50 (HCT-15 colon) > 100 µM | GI50 (HL-60(TB) leukemia) > 100 µM | GI50 (HOP-62 NSCLC) > 100 µM | GI50 (HOP-92 NSCLC) 68.8 µM | GI50 (HS 578T breast) > 100 µM | GI50 (HT29 colon) > 100 µM | GI50 (IGROV1 ovarian) > 100 µM | GI50 (K-562 leukemia) > 100 µM | GI50 (KM12 colon) > 100 µM | GI50 (LOX IMVI melanoma) > 100 µM | GI50 (M14 melanoma) > 100 µM | GI50 (MALME-3M melanoma) > 100 µM | GI50 (MCF7 breast) > 100 µM | GI50 (MDA-MB-231 breast) > 100 µM | GI50 (MDA-MB-435) > 100 µM | GI50 (MDA-N) > 100 µM | GI50 (MOLT-4 leukemia) > 100 µM | GI50 (NCI-H226 lung) 48.2 µM | GI50 (NCI-H23 lung) > 100 µM | GI50 (NCI-H322M lung) > 100 µM | GI50 (NCI-H460 lung) > 100 µM | GI50 (NCI-H522 lung) > 100 µM | GI50 (NCI/ADR-RES ovarian) > 100 µM | GI50 (OVCAR-3 ovarian) > 100 µM | GI50 (OVCAR-4 ovarian) > 100 µM | GI50 (OVCAR-5 ovarian) > 100 µM | GI50 (OVCAR-8 ovarian) > 100 µM | GI50 (PC-3 prostate) > 100 µM | GI50 (RPMI-8226 leukemia) > 100 µM | GI50 (RXF 393 renal) > 100 µM | GI50 (SF-268 CNS) > 100 µM | GI50 (SF-295 CNS) > 100 µM | GI50 (SF-539 CNS) > 100 µM | GI50 (SK-MEL-2 melanoma) > 100 µM | GI50 (SK-MEL-28 melanoma) > 100 µM | GI50 (SK-MEL-5 melanoma) > 100 µM | GI50 (SN12C renal) > 100 µM | GI50 (SNB-19 CNS) > 100 µM | GI50 (SNB-75 CNS) 72.4 µM | GI50 (SR leukemia) > 100 µM | GI50 (SW-620 colon) > 100 µM | GI50 (T-47D breast) > 100 µM | GI50 (TK-10 renal) > 100 µM | GI50 (U251 CNS) > 100 µM | GI50 (UACC-257 melanoma) > 100 µM | GI50 (UACC-62 melanoma) > 100 µM
> 100 µM: TGI (786-0 renal) | TGI (A498 renal) | TGI (A549 NSCLC) | TGI (ACHN renal) | TGI (CAKI-1 renal) | TGI (CCRF-CEM leukemia) | TGI (COLO 205 colon) | TGI (DU-145 prostate) | TGI (EKVX NSCLC) | TGI (HCC-2998 colon) | TGI (HCT-116 colon) | TGI (HCT-15 colon) | TGI (HL-60(TB) leukemia) | TGI (HOP-62 NSCLC) | TGI (HOP-92 NSCLC) | TGI (HS 578T breast) | TGI (HT29 colon) | TGI (IGROV1 ovarian) | TGI (K-562 leukemia) | TGI (KM12 colon) | TGI (LOX IMVI melanoma) | TGI (M14 melanoma) | TGI (MALME-3M melanoma) | TGI (MCF7 breast) | TGI (MDA-MB-231 breast) | TGI (MDA-MB-435) | TGI (MDA-N) | TGI (MOLT-4 leukemia) | TGI (NCI-H226 lung) | TGI (NCI-H23 lung) | TGI (NCI-H322M lung) | TGI (NCI-H460 lung) | TGI (NCI-H522 lung) | TGI (NCI/ADR-RES ovarian) | TGI (OVCAR-3 ovarian) | TGI (OVCAR-4 ovarian) | TGI (OVCAR-5 ovarian) | TGI (OVCAR-8 ovarian) | TGI (PC-3 prostate) | TGI (RPMI-8226 leukemia) | TGI (RXF 393 renal) | TGI (SF-268 CNS) | TGI (SF-295 CNS) | TGI (SF-539 CNS) | TGI (SK-MEL-2 melanoma) | TGI (SK-MEL-28 melanoma) | TGI (SK-MEL-5 melanoma) | TGI (SN12C renal) | TGI (SNB-19 CNS) | TGI (SNB-75 CNS) | TGI (SR leukemia) | TGI (SW-620 colon) | TGI (T-47D breast) | TGI (TK-10 renal) | TGI (U251 CNS) | TGI (UACC-257 melanoma) | TGI (UACC-62 melanoma)
